Our source for the activation values is US5679636A, “Bone and prostate-derived protein factors affecting prostate cancer growth, differentiation, and metastasis” (Board of Regents, The University of Texas, priority 1994, dated 1997).

This experiment deals with LNCaP cells. The experiment in a line: cells. The following applies: Homo sapiens.

On to `C[C@]12CC[C@H]3[C@@H](CCC4=CC(=O)CC[C@@]43C)[C@@H]1CC[C@@H]2O` [testosterone], for which the activation at 0.0005 µM (216 h, read-out: increase in cell number (peak response)) came out at 62%. In addition, the activation at 0.001 µM (read-out: increase in cell growth) was 182%.
